Results: patent US20070059799A1 (priority 1999, published 2007)

Each molecule was assayed on A3-supertype alleles (assay: A3-supertype cross-reactive binding (A*03, A*11, A*3101, A*3301, A*6801)). Details: number of A3-supertype alleles bound; 3 or more = degenerate.
Parameters: species or system human

`C[C@H](N)C(=O)N[C@@H](Cc1ccccc1)C(=O)N[C@H](C(=O)N[C@@H](Cc1ccccc1)C(=O)N[C@@H](CO)C(=O)N1CCC[C@H]1C(=O)N[C@H](C(=O)N[C@@H](Cc1ccc(O)cc1)C(=O)N[C@@H](CCCCN)C(=O)O)[C@@H](C)O)[C@@H](C)O` [20.0130] and `C[C@@H](O)[C@H](NC(=O)[C@@H](N)Cc1ccccc1)C(=O)N[C@@H](Cc1ccccc1)C(=O)N[C@@H](CO)C(=O)N1CCC[C@H]1C(=O)N[C@H](C(=O)N[C@@H](Cc1ccc(O)cc1)C(=O)N[C@@H](CCCCN)C(=O)O)[C@@H](C)O` [Peptide 26.0008] are the same in Alleles bound: 3 for the first, 3 for the second.

Compared with `CC(C)[C@H](NC(=O)[C@@H](NC(=O)[C@@H](N)CO)C(C)C)C(=O)N[C@@H](CCCNC(=N)N)C(=O)N[C@@H](CCCNC(=N)N)C(=O)N[C@@H](C)C(=O)N[C@@H](Cc1ccccc1)C(=O)N1CCC[C@H]1C(=O)N[C@@H](Cc1c[nH]cn1)C(=O)O` [20.0131], `CC(C)C[C@H](NC(=O)[C@H](C)NC(=O)[C@@H](N)CS)C(=O)N[C@@H](CCCNC(=N)N)C(=O)N[C@@H](Cc1ccccc1)C(=O)N[C@H](C(=O)N[C@@H](CO)C(=O)N[C@@H](C)C(=O)N[C@@H](CCCNC(=N)N)C(=O)O)[C@@H](C)O` [Peptide 26.0149] is higher in Alleles bound: 3 for the first, 4 for the second.

`CC[C@H](C)[C@H](NC(=O)CNC(=O)[C@H](C)NC(=O)[C@H](CCCCN)NC(=O)[C@H](Cc1c[nH]c2ccccc12)NC(=O)[C@H](CC(C)C)NC(=O)[C@@H](N)[C@@H](C)O)C(=O)N[C@@H](CC(C)C)C(=O)N[C@@H](Cc1ccc(O)cc1)C(=O)O` [1099.03] and `CC[C@H](C)[C@H](N)C(=O)N[C@@H](CC(C)C)C(=O)N[C@@H](CCCNC(=N)N)C(=O)NCC(=O)N[C@H](C(=O)N[C@@H](CO)C(=O)N[C@@H](Cc1ccccc1)C(=O)N[C@H](C(=O)N[C@@H](Cc1ccc(O)cc1)C(=O)O)C(C)C)[C@@H](C)O` [Peptide 1.0205] are the same in Alleles bound: 1 for the first, 1 for the second.

Compared with `CC(C)C[C@H](NC(=O)[C@H](CC(=O)O)NC(=O)[C@@H](NC(=O)[C@@H](N)[C@@H](C)O)[C@@H](C)O)C(=O)N[C@@H](CCC(=O)O)C(=O)N[C@@H](C)C(=O)N[C@@H](Cc1ccc(O)cc1)C(=O)N[C@@H](Cc1ccccc1)C(=O)N[C@@H](CCCCN)C(=O)O` [Peptide 1.0215.], `CC(C)C[C@H](NC(=O)[C@H](CC(=O)O)NC(=O)[C@@H](NC(=O)[C@@H](NC(=O)[C@@H](N)CO)[C@@H](C)O)[C@@H](C)O)C(=O)N[C@@H](CCC(=O)O)C(=O)N[C@@H](C)C(=O)N[C@@H](Cc1ccc(O)cc1)C(=O)N[C@@H](Cc1ccccc1)C(=O)N[C@@H](CCCCN)C(=O)O` [Peptide 1.0584] is lower in Alleles bound: 2 for the first, 1 for the second.

Compared with `CC[C@H](C)[C@H](NC(=O)CNC(=O)[C@H](CC(C)C)NC(=O)[C@@H](N)CO)C(=O)N[C@@H](Cc1c[nH]cn1)C(=O)N[C@@H](CC(C)C)C(=O)N[C@@H](CC(N)=O)C(=O)N1CCC[C@H]1C(=O)N[C@@H](CC(N)=O)C(=O)N[C@@H](CCCCN)C(=O)O` [Peptide 1.0562], `CC[C@H](C)[C@H](NC(=O)[C@H](CO)NC(=O)[C@@H](N)C(C)C)C(=O)N1CCC[C@H]1C(=O)N[C@@H](Cc1c[nH]c2ccccc12)C(=O)N[C@H](C(=O)N[C@@H](Cc1c[nH]cn1)C(=O)N[C@@H](CCCCN)C(=O)O)[C@@H](C)O` [Peptide 26.0024] is lower in Alleles bound: 2 for the first, 1 for the second.

Compared with `CC(C)C[C@H](NC(=O)[C@@H](NC(=O)[C@H](Cc1ccccc1)NC(=O)[C@@H](NC(=O)[C@@H](N)CCCCN)C(C)C)C(C)C)C(=O)NCC(=O)NCC(=O)N[C@@H](CS)C(=O)N[C@@H](CCCNC(=N)N)C(=O)O` [Peptide 1.0993], `CC[C@H](C)[C@H](NC(=O)[C@H](Cc1c[nH]c2ccccc12)NC(=O)[C@@H](NC(=O)CNC(=O)[C@H](Cc1ccccc1)NC(=O)[C@H](CO)NC(=O)[C@@H](N)C(C)C)C(C)C)C(=O)N[C@@H](CCCNC(=N)N)C(=O)O` [Peptide 26.0023] is lower in Alleles bound: 4 for the first, 3 for the second.

Compared with `CC(C)C[C@H](NC(=O)[C@H](C)NC(=O)[C@H](CS)NC(=O)[C@@H]1CCCN1C(=O)CNC(=O)[C@H](C)NC(=O)[C@H](CO)NC(=O)[C@@H](N)CO)C(=O)N[C@@H](CCCNC(=N)N)C(=O)O` [Peptide 26.0153], `CC(C)C[C@H](NC(=O)[C@@H](NC(=O)[C@@H](N)CO)[C@@H](C)O)C(=O)N1CCC[C@H]1C(=O)N[C@@H](CCC(=O)O)C(=O)N[C@H](C(=O)N[C@H](C(=O)N[C@H](C(=O)N[C@H](C(=O)N[C@@H](CCCNC(=N)N)C(=O)O)C(C)C)C(C)C)[C@@H](C)O)[C@@H](C)O` [Peptide 1069.21] is lower in Alleles bound: 4 for the first, 2 for the second.

Going from `CC[C@H](C)[C@H](NC(=O)[C@H](Cc1c[nH]c2ccccc12)NC(=O)[C@@H](NC(=O)CN)C(C)C)C(=O)N[C@@H](CCCNC(=N)N)C(=O)N[C@H](C(=O)N1CCC[C@H]1C(=O)N1CCC[C@H]1C(=O)N[C@@H](C)C(=O)N[C@@H](Cc1ccc(O)cc1)C(=O)N[C@@H](CCCNC(=N)N)C(=O)O)[C@@H](C)O` [Peptide 26.0535] to `CC(C)C[C@H](NC(=O)[C@@H](N)[C@@H](C)O)C(=O)N1CCC[C@H]1C(=O)N[C@@H](CCC(=O)O)C(=O)N[C@H](C(=O)N[C@H](C(=O)N[C@H](C(=O)N[C@H](C(=O)N[C@@H](CCCNC(=N)N)C(=O)N[C@@H](CCCNC(=N)N)C(=O)O)C(C)C)C(C)C)[C@@H](C)O)[C@@H](C)O` [Peptide 1069.22], the Alleles bound falls from 5 to 2.

Going from `CC(C)C[C@H](NC(=O)[C@@H](N)CCCNC(=N)N)C(=O)N[C@H](C(=O)N[C@H](C(=O)N[C@@H](CC(=O)O)C(=O)N[C@@H](Cc1ccccc1)C(=O)N[C@@H](CO)C(=O)N[C@@H](CCC(N)=O)C(=O)N[C@@H](Cc1ccccc1)C(=O)N[C@@H](CO)C(=O)N[C@@H](CCCNC(=N)N)C(=O)O)C(C)C)C(C)C` [Peptide 26.0539] to `CC(C)[C@H](N)C(=O)N[C@H](C(=O)N[C@@H](CC(=O)O)C(=O)N[C@@H](Cc1ccccc1)C(=O)N[C@@H](CO)C(=O)N[C@@H](CCC(N)=O)C(=O)N[C@@H](Cc1ccccc1)C(=O)N[C@@H](CO)C(=O)N[C@@H](CCCNC(=N)N)C(=O)O)C(C)C` [Peptide 1069.19], the Alleles bound falls from 5 to 2.

First: CC(C)C[C@H](NC(=O)[C@@H](N)[C@@H](C)O)C(=O)N1CCC[C@H]1C(=O)N[C@@H](CCC(=O)O)C(=O)N[C@H](C(=O)N[C@H](C(=O)N[C@H](C(=O)N[C@H](C(=O)N[C@@H](CCCNC(=N)N)C(=O)N[C@@H](CCCNC(=N)N)C(=O)N[C@@H](CCCNC(=N)N)C(=O)O)C(C)C)C(C)C)[C@@H](C)O)[C@@H](C)O [Peptide 26.0545]
Second: CC(C)C[C@H](NC(=O)[C@H](CS)NC(=O)[C@H](Cc1c[nH]cn1)NC(=O)[C@@H]1CCCN1C(=O)[C@H](Cc1ccccc1)NC(=O)[C@H](C)NC(=O)[C@@H](N)CCCNC(=N)N)C(=O)N[C@@H](C)C(=O)N[C@@H](Cc1ccccc1)C(=O)N[C@@H](CO)C(=O)N[C@@H](Cc1ccc(O)cc1)C(=O)O [Peptide 26.0550]
The Alleles bound of the first is higher: 3 for the first, 2 for the second.

`CC[C@H](C)[C@H](NC(=O)[C@@H]1CCCN1C(=O)[C@H](CC(C)C)NC(=O)[C@@H](N)CC(C)C)C(=O)N[C@@H](Cc1ccccc1)C(=O)N[C@@H](Cc1ccccc1)C(=O)N[C@@H](CS)C(=O)N[C@@H](CC(C)C)C(=O)N[C@@H](Cc1c[nH]c2ccccc12)C(=O)N[C@H](C(=O)N[C@@H](Cc1ccc(O)cc1)C(=O)O)C(C)C` [Peptide 26.0549] was tested, and the Alleles bound was 2.
